We go through 1 molecule from ChEMBL document CHEMBL5033998, “Discovery of DDO-2213 as a Potent and Orally Bioavailable Inhibitor of the WDR5-Mixed Lineage Leukemia 1 Protein-Protein Interaction for the Treatment of MLL Fusion Leukemia” (J Med Chem, 2021).

Series [1] has as its target T1, WD repeat-containing protein 5 (Homo sapiens, UniProt P61964).
In series [2] the target is T1, WD repeat-containing protein 5. Description: Binding affinity to WDR5 (unknown origin) by isothermal titration calorimetry assay.
Series [3] can be described thus: Apparent volume of distribution in Sprague-Dawley rat at 2 mg/kg, iv measured upto 24 hrs by LC-MS/MS analysis. The class given is ADME, organism-based. Particulars: in vivo.
The target of series [4] is T1, WD repeat-containing protein 5. The source holds these as a separate data set.

pKd: −log10 of the molar value.

As for `CN1CCN(c2cc(F)c(-c3ccc(C(=O)N(C)C)cc3)cc2Nc2ncnc(Cl)c2N)CC1`, the deltaH in series [1] was -12.2 kcal/mol. Besides, in series [2], the negative logarithm of the Kd (pKd) is 7.14. In series [3], the Vz/F came out at 12.2 L/kg. Besides, in series [4], the deltaG is -9.73 kcal/mol.
